From PMC10048853, “A Study on the Interactions of Proteinase K with Myricetin and Myricitrin by Multi-Spectroscopy and Molecular Modeling” (International Journal of Molecular Sciences, 2023)

Protein sequences, listed by entry. Tags and fused reporters are not part of them. Residues count along the entry.
UniProt P06873, 106-384: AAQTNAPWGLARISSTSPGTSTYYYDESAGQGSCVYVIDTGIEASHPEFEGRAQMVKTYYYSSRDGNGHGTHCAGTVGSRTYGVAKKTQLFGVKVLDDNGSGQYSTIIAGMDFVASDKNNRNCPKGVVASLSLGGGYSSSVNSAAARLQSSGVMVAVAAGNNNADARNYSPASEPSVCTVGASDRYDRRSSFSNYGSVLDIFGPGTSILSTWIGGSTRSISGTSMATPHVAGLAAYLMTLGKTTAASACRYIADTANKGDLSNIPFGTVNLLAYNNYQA

Target: T1, proteinase K (PK) (Parengyodontium album, UniProt P06873)
T1 construct: It is a single-chain protein consisting of 279 amino acid residues and has a molecular weight of 28,930 Da; purchased Jiuding Chemicals (Shanghai, China)
Assay: Fluorescence quenching of proteinase K by MYR/MYT (Stern–Volmer, double-logarithmic and Van't Hoff analysis)
Assay type: binding, Tritirachium album limber
Conditions: double logarithmic equation
From the text: Fluorescence spectroscopy is an effective method used to investigate conformational changes of proteins and binding parameters of ligands to fluorophore residues of proteins such as Trp, Tyr or Phe. PK contains two Trp residues (Trp8 and Trp212), which make it possible to emit fluorescence. The fluorescence emission intensity of PK decreases gradually when MYR or MYT interacts with PK. The process by which this phenomenon occurs is called fluorescence quenching, which is the result of the altered microenvironment of PK. To eliminate the interference of fluorescence quenching from the inner filter effect, the experiments were corrected for fluorescence intensity using Equation (1). (1) Fcorr=Fobs×e^(Aex+Aem)/2 where Fcorr and Fobs are the fluorescence emission intensity values of the corrected and pre-corrected systems, respectively. Aex and Aem are the UV–Vis absorption intensities of quencher and PK at excitation and emission wavelengths, respectively.
To investigate the differences in the fluorescence quenching patterns of the PK-MYR and PK-MYT complexes, the Stern–Volmer equation (Equation (2)) was used for analysis. (2) F0/F=1+Kqτ0[Q]=1+Ksv[Q] where F and F0 are the fluorescence emission intensities of PK in the presence or absence of the quencher (MYR or MYT), respectively, [Q] is the concentration of the quencher, Ksv is the ratio of the bimolecular quenching model constant to the single-molecule decay rate constant, namely, the Stern–Volmer equation quenching constants, Kq is the fluorescence quenching rate constant, and τ0 is the average lifetime of the fluorescent molecule when no quencher is added, while the average lifetime of biological macromolecules is 1 × 10^−^8 s.
Fluorescence quenching could be categorized into two processes, namely dynamic quenching and static quenching. Dynamic quenching occurs when the quencher collides with biological macromolecules, while static quenching is caused by the formation of complexes. […]
The binding constants and the number of binding sites can be calculated by using a double logarithmic equation [20, 21] […]

Myricitrin [MYT]
binding constant KA (T 290 K): 8.78 10^4 L·mol^−1
binding constant KA (T 300 K): 2.43 10^4 L·mol^−1
binding constant KA (T 310 K): 0.53 10^4 L·mol^−1
